Experimental data: publication PMC8567046, “SMYD2‐mediated TRAF2 methylation promotes the NF‐κB signaling pathways in inflammatory diseases” (Clinical and Translational Medicine, 2021)

Molecular target: T1, His-TRAF2 (immobilised on CM5) (UniProt Q12933 1-501)
T1 construct: TRAF2; Isolated protein coupled to the sensor surface
T1 sequence (looked up): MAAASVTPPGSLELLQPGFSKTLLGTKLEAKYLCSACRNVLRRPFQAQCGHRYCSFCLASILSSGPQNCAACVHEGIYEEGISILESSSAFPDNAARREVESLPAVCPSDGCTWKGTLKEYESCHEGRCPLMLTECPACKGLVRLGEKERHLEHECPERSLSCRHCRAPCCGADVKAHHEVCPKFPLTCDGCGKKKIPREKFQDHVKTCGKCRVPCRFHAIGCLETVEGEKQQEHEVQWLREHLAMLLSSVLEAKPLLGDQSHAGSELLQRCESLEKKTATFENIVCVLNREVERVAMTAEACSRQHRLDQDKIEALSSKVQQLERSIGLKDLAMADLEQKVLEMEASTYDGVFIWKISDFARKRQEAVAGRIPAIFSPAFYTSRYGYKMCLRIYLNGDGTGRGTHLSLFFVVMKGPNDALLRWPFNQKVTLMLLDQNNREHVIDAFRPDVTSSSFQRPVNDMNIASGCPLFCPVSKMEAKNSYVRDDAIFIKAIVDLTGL
Assay: SPR; Biacore; His-TRAF2 immobilised on CM5; His-SMYD2 in HBS buffer at 0.039 μM - 1.25 μM injected; association 45 s, dissociation 100 s
Conditions: both partners purified

Kd: 0.0294 µM
koff: 0.00103 s⁻¹
kon: 35100 M⁻¹ s⁻¹
B1: His-SMYD2 (enzyme, UniProt Q9NRG4 1-433, looked up)
chain: MRAEGLGGLERFCSPGKGRGLRALQPFQVGDLLFSCPAYAYVLTVNERGNHCEYCFTRKEGLSKCGRCKQAFYCNVECQKEDWPMHKLECSPMVVFGENWNPSETVRLTARILAKQKIHPERTPSEKLLAVKEFESHLDKLDNEKKDLIQSDIAALHHFYSKHLGFPDNDSLVVLFAQVNCNGFTIEDEELSHLGSAIFPDVALMNHSCCPNVIVTYKGTLAEVRAVQEIKPGEEVFTSYIDLLYPTEDRNDRLRDSYFFTCECQECTTKDKDKAKVEIRKLSDPPKAEAIRDMVRYARNVIEEFRRAKHYKSPSELLEICELSQEKMSSVFEDSNVYMLHMMYQAMGVCLYMQDWEGALQYGQKIIKPYSKHYPLYSLNVASMWLKLGRLYMGLEHKAAGEKALKKAIAIMEVAHGKDHPYISEIKQEIESH
notes: SMYD2; also called highly purified His-SMYD2; source: highly purified
